Values quoted from earlier work, collected in patent US5688992A, “O-malonyltryrosyl compounds, O-malonyltryrosyl compound-containing peptides, and use thereof” (The United States of America as represented by the …, priority 1995, dated 1997).

By UniProt entry, the sequences of proteins in these tests, tags left out. Residues count along the entry.
UniProt P27986, 624-718 limits assumed: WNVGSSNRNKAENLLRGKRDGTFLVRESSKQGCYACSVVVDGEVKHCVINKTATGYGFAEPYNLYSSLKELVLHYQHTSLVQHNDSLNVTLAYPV

Molecular target: C-terminal SH2 domain of PI 3-kinase p85 (Homo sapiens, UniProt P27986)
Conditions: read-out: IC50 ± S.E., p85 (C-terminal) SH2 domain; X = pTyr or L-F2Pmp; previously reported (Burke 1994); cited from earlier work

For `CSCC[C@H](NC(=O)[C@@H]1CCCN1C(=O)[C@@H](NC(=O)[C@H](Cc1ccc(OP(=O)(O)O)cc1)NC(=O)[C@H](CC(=O)O)NC(C)=O)C(C)C)C(=O)N[C@@H](CC(C)C)C(N)=O`, the IC50 is listed as 150 nM.
